What all share (format): cell-based
The subject of experiment [1] is L1210 murine leukemia cells. The experiment in a line: Inhibition of growth of tumor cells, L1210 murine leukemia (MTT). The note with it: Mus musculus, L1210, 72 h, 3 days continuous exposure, read-out: Cell Culture IC50, L1210.
In a further experiment the test system is CCRF-CEM cells. As to the kind of experiment: Inhibition of growth of tumor cells, CCRF-CEM human lymphoblastic leukemia (MTT). Particulars: 120 h, 5 days continuous exposure, read-out: Cell Culture IC50, CCRF-CEM.
The test system of a further experiment is GC3/M TK- cells. The experiment in a line: Inhibition of growth of tumor cells, thymidine kinase-deficient human colon adenocarcinoma GC3/M TK- (MTT). The note with it: GC3/MTK-, 120 h, 5 days continuous exposure, read-out: Cell Culture IC50, GC3-M (TK-).

These results are taken from patent US5430148A, “Antiproliferative quinazolines” (Agouron Pharmaceuticals, Inc., priority 1992, dated 1995).

One may read the IC50 as the point on the concentration scale where inhibition reaches its midpoint. Turning to `Cc1nc2cccc(Sc3ccncc3)c2c(=O)[nH]1` [Compound 7A], the IC50 in experiment [1] was 14 µM. As to `COc1cc(Sc2c(C)ccc3nc(C)[nH]c(=O)c23)ccn1` [Compound 16A, 3,4-Dihydro-2,6-dimethyl-4-oxo-5-[4-(6-methoxypyridylthio)]quinazoline], the IC50 came out at 3.1 µM in experiment [1] and 3.8 µM in the experiment with CCRF-CEM cells.

As to `Cc1nc2ccc(C)c(Sc3ccnc(C(F)(F)F)c3)c2c(=O)[nH]1` [Compound 17A, 3,4-Dihydro-2,6-dimethyl-4-oxo-5-[4-(6-trifluoromethylpyridylthio)]-quinazoline], the half-maximal inhibitory concentration (IC50) in experiment [1] came to 8.1 µM; in the experiment on CCRF-CEM cells, 8.6 µM; in the experiment on GC3/M TK- cells, 15 µM. With `Cc1nc2ccc(C)c(Sc3ccnnc3)c2c(=O)[nH]1` [Compound 29A], the IC50 in the experiment with CCRF-CEM cells turned out to be 10.5 µM.
